Experimental findings from PubChem BioAssay AID2237 (Johns Hopkins Ion Channel Center, 2010) are described below.

Protein sequences, listed by entry. Tags and fused reporters are not part of them.
UniProt Q9QUQ5, whole entry: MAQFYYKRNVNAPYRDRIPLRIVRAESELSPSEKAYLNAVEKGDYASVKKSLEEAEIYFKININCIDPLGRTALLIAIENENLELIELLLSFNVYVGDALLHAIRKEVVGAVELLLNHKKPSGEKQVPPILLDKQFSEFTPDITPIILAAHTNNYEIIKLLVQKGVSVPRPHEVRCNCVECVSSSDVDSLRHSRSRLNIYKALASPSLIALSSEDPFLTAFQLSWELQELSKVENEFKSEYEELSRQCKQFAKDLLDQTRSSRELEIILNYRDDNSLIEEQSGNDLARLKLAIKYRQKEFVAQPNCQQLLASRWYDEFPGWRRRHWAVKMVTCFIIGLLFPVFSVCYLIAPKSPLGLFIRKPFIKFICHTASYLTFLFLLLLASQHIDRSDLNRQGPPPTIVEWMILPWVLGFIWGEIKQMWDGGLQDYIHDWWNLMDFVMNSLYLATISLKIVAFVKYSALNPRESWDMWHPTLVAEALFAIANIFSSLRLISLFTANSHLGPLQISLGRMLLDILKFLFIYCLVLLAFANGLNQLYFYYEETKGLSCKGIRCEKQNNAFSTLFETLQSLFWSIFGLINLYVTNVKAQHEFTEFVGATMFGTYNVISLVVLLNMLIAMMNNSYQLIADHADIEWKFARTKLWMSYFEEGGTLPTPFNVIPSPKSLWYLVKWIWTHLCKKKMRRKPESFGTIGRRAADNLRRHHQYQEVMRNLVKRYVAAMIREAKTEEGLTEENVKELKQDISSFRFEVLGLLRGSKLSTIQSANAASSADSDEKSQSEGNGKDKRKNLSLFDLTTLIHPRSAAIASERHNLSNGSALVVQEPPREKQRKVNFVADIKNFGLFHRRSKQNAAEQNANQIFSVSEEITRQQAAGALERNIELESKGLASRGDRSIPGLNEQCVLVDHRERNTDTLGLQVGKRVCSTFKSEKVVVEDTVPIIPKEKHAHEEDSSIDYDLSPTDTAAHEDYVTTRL

This is a selection; strong and weak results do not stand in their true shares. Active and inactive are the calls of the source.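 Rule for the calls: active = B-score above 5 SD of library B-scores, and initial fluorescence ratio not above library mean plus 5 SD; inactive = the rest.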

For this assay, the target named is Short transient receptor potential channel 4 (Mus musculus) (UniProt Q9QUQ5). The assay can be described thus: activators of mouse TRPC4 channel, primary screen, Fluo4 calcium, HEK293 TRPC4beta/mu-opioid cells (AID 2237). To be noted: Fluo4 calcium fluorescence, at 10 µM.
Regarding `O=C(OCCN1CCN(CCOCc2ccccc2)CC1)C(O)(c1ccccc1)c1ccccc1`, the result was inactive.

Take `O=C(OC1CN2CCC1CC2)c1ccc([N+](=O)[O-])cc1` (stereo not drawn): the result was inactive.

As to `CC(=O)c1ccc(N2CC2c2ccncc2)cc1` (stereo not drawn), the outcome was inactive.

Consider `COc1ccc(OP(C)(=O)Nc2ccc(SC(F)(F)F)cc2)cc1` (stereo not drawn), for which the outcome was inactive.

On to `CCOC(=O)c1ccc(NP(C)(=O)Oc2ccc(F)cc2)cc1` (stereo not drawn), for which the outcome was inactive.

`Cc1ccc(NP(=O)(Oc2cccc(C)c2)Oc2cccc(C)c2)nc1`: the outcome was inactive.

For the compound `CCOC(=O)NC(Sc1ccccc1)C(Cl)(Cl)Cl` (stereo not drawn), the outcome was inactive.

On to `c1ccc(-c2nn[nH]n2)c(-c2nn[nH]n2)c1`, for which the result was inactive.

Turning to `CCNC(=S)/N=C(\N)N[N+](=O)[O-]`, the result was inactive.

For `O=C(NC1CCS(=O)(=O)C1)NP(=S)(Oc1ccccc1)Oc1ccccc1` (stereo not drawn), the result was inactive.

As to `O=[N+]([O-])c1cc([N+](=O)[O-])c(OC2CCCCC2O)c([N+](=O)[O-])c1` (stereo not drawn), the result was inactive.

Turning to `CCCCCOc1ccc(NP(C)(=O)Oc2ccc(Cl)cc2Cl)cc1` (stereo not drawn), the outcome was inactive.

Turning to `CN(C)C(=O)Oc1noc2ccccc12`, the outcome was inactive.

`Cc1ccccc1OP(=O)(Nc1ccccn1)Oc1ccccc1C`: the outcome was inactive.

For `CP(=O)(Nc1ccccc1)Oc1ccc(F)cc1` (stereo not drawn), the result was inactive.

For `CCN(CC)CCCOC(=O)C(O)(c1ccccc1)C1CCCCC1` (stereo not drawn), the result was inactive.

In the case of `CCC(=O)N1C2C3N(C(=O)CC)C1C1N(C(=O)CC)C(C(N1C(=O)CC)N3C(=O)CC)N2C(=O)CC`, the outcome was inactive.

Take `O=C(OC1CN2CCC1CC2)c1ccccc1` (stereo not drawn): the result was inactive.

In the case of `CC(=O)NC(SC(=S)N(CC(C)C)CC(C)C)C(Cl)(Cl)Cl` (stereo not drawn), the result was inactive.

With `Cc1ccc(OP(=O)(Nc2ccccn2)Oc2ccc(C)cc2)cc1`, the outcome was inactive.

For the compound `COC(=O)c1cc2c(s1)N=C(c1ccccc1)N(C)P2(=O)N1CCOCC1` (stereo not drawn), the outcome was inactive.

Turning to `COc1ccc(NP(C)(=O)Oc2ccccc2OC)cc1` (stereo not drawn), the result was inactive.

Consider `C[C@H]1OP(=O)(Oc2ccccc2)[C@H](O)[C@H](O)[C@H]1N=[N+]=[N-]` (stereo partly drawn), for which the result was inactive.

For the compound `CN(C)CCOC(=O)C(O)(c1ccccc1)C1CCCCC1` (stereo not drawn), the result was inactive.

In the case of `O=P(Nc1nc2ccccc2s1)(c1ccccc1)c1ccccc1`, the outcome was inactive.

In the case of `O=P(Nc1ccccn1)(c1ccc(Br)cc1)c1ccc(Br)cc1`, the result was inactive.

In the case of `COc1ccc(OP(C)(=O)Nc2cccc(Br)c2)cc1` (stereo not drawn), the result was inactive.

Take `O=C(OC1CN2CCC1CC2)c1cccc(Cl)c1` (stereo not drawn): the outcome was inactive.

Take `C(Cc1nn[nH]n1)Cc1nn[nH]n1`: the result was inactive.

For the compound `Nc1ccc([As](=O)(O)c2ccc([N+](=O)[O-])cc2)cc1`, the result was inactive.

In the case of `Cc1cc(-c2cccc3ccccc23)c(C)cn1.O=[N+]([O-])c1cc([N+](=O)[O-])c(O)c([N+](=O)[O-])c1`, the outcome was inactive.

Consider `O=[N+]([O-])c1cc([N+](=O)[O-])c(NCC2CCS(=O)(=O)C2)c([N+](=O)[O-])c1` (stereo not drawn), for which the result was inactive.

On to `O=[As](O)(c1ccccc1)c1ccc(O)cc1`, for which the result was inactive.

In the case of `O=[N+]([O-])c1ccc(O)c(/C=N/Nc2ccc([N+](=O)[O-])cc2[N+](=O)[O-])c1`, the outcome was inactive.

Turning to `O=[N+]([O-])c1ccc(OP2(=O)COCCO2)cc1` (stereo not drawn), the result was inactive.

Consider `CC(=O)NC(SC(=S)N(C)C)C(Cl)(Cl)Cl` (stereo not drawn), for which the outcome was inactive.

Consider `O=[N+]([O-])c1ncn(CCn2cnc([N+](=O)[O-])n2)n1`, for which the result was inactive.

On to `c1nnnn1CCn1cnnn1`, for which the result was inactive.

As to `CCOP(C)(=S)SCC(=O)NC(C)(CC)C(=O)O` (stereo not drawn), the result was inactive.

Regarding `CC(C)C(=O)NC(Sc1ccccc1)C(Cl)(Cl)Cl` (stereo not drawn), the result was inactive.

With `O=P(Nc1nccs1)(c1ccccc1)c1ccccc1`, the result was inactive.

As to `CP(=O)(Nc1ccc(SC(F)(F)F)cc1)Oc1ccc(F)cc1` (stereo not drawn), the outcome was inactive.

Turning to `CP(=O)(Nc1ccc2c(c1)OCCO2)Oc1ccccc1` (stereo not drawn), the outcome was inactive.
